Results reported in patent US12599130B2, “Liquid agricultural adjuvant” (Oro Agri Inc., priority 2019, dated 2026).

Assay: Paraffin wax solubility test
Type: physicochemical
Conditions: 2.0 g paraffin wax in 98 g solvent, 25° C., stirring at 350 rpm

DISSOLUTION TIME: 627 min
Compound: CCCCCCCCCCCCCC(=O)OC(C)C [ISOPROPYL MYRISTATE]
